Laboratory results reported in PubChem BioAssay AID652017 (The Scripps Research Institute Molecular Screening Center, 2013).
This is a selection; strong and weak results do not stand in their true shares. The source made the active and inactive calls. Cut-off read from the data, not from the text of the source: active = activation above about 7.8%; inactive = the rest.

Assay: SMARCA2 (BRM) function activators, primary screen, cell-based, luminescence, high throughput (AID 652017);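 note: 0% = vehicle wells and 100% = reference activator wells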
Conditions: MG213 cells, MMTV-luciferase reporter, dexamethasone, overnight; at 9.1 µM; stronger effect = higher value
For `O=C1CCN(Cc2ccccc2)CC1`, the activation was inactive: 0.79%. In the case of `CC(C)(C)n1nnnc1C(c1ccccc1)N1CCC(n2c(=O)[nH]c3ccccc32)CC1` (stereo not given), the activation was inactive: -4.61%. In the case of `CCOc1ccc(C)cc1CN(CCCl)CCCl`, the activation was inactive: -0.11%. With `COc1ccc(NC2CCN(CCc3ccccc3)CC2)c(OC)c1` the activation was inactive: 0.73%. For `CCOC(=O)N1CCC(Nc2ccc(F)cc2)CC1`, the activation was inactive: -3.46%. With `O=P1(N(CCCl)CCCl)SCCCS1` the activation was inactive: -2.01%. For `CCCCn1nnnc1C(c1cc2ccccc2o1)N1CCC(n2c(=O)[nH]c3ccccc32)CC1` (stereo not given), the activation was inactive: -5.6%. For `CCCCOc1ccc(C(=O)NCC2(N3CCOCC3)CCCCC2)cc1`, the activation was inactive: -3.17%. In the case of `O=C(NCC1(N2CCCCC2)CCCCC1)c1ccc(F)cc1`, the activation was inactive: -1.4%. For `O=c1[nH]c2ccccc2n1C1CCN(C(c2ccccc2)c2nnnn2C2CCCCC2)CC1` (stereo not given), the activation was inactive: -2.38%. For `CCOC(=O)N1CCC(Nc2cccc(C)c2)CC1`, the activation was inactive: -1.45%. In the case of `COc1cc(C(=O)NCC2(N(C)C)CCCCC2)ccc1OC(F)F`, the activation was inactive: -2.04%. In the case of `O=c1[nH]c2ccccc2n1C1CCN(C(c2cccc3ccccc23)c2nnnn2C2CCCC2)CC1` (stereo not given), the activation was inactive: -4.41%. In the case of `CC(C)(C)OC(=O)N1CCC(N(C(=O)c2ccccc2)c2ccc(F)cc2)CC1`, the activation was inactive: -2.5%. For `COc1ccc(C(=O)NCC2(N3CCCCC3)CCCCC2)c(OC)c1OC`, the activation was inactive: -3.28%. For `CCC(c1nnnn1C1CCCC1)N1CCC(n2c(=O)[nH]c3ccccc32)CC1` (stereo not given), the activation was inactive: -4.67%. With `COc1ccc(C(=O)NCC2(N3CCCCC3)CCCCC2)cc1` the activation was inactive: -0.44%. With `O=C(NCC1(N2CCCCC2)CCCCC1)c1cccs1` the activation was inactive: -0.96%. In the case of `CCCCn1nnnc1C(CC)N1CCC(n2c(=O)[nH]c3ccccc32)CC1` (stereo not given), the activation was inactive: -4.7%. In the case of `CCCCn1nnnc1C(c1cccs1)N1CCC(n2c(=O)[nH]c3ccccc32)CC1` (stereo not given), the activation was inactive: -3.29%. In the case of `O=C(NCC1(N2CCCCC2)CCCCC1)c1ccc(=O)[nH]c1`, the activation was inactive: -1.87%. In the case of `Cc1cccc(NC2(C#N)CCN(Cc3ccccc3)CC2)c1`, the activation was inactive: -7.71%. For `CSc1ccccc1C(=O)NCC1(N2CCCCC2)CCCCC1`, the activation was inactive: 4.13%. With `Cc1cc(C)cc(N(C(=O)c2ccccc2)C2CCN(C(=O)OC(C)(C)C)CC2)c1` the activation was inactive: 3.63%. For `O=C(NCC1(N2CCCCC2)CCCCC1)c1ccc(Cl)nc1`, the activation was inactive: -2.39%. In the case of `O=c1[nH]c2ccccc2n1C1CCN(C(c2ccccc2OC(F)(F)F)c2nnnn2C2CCCCC2)CC1` (stereo not given), the activation was inactive: -0.15%. With `O=C(NCC1(N2CCOCC2)CCCCC1)c1cc2ccccc2o1` the activation was inactive: 0.25%. For `COc1ccc(Cl)cc1C(=O)NCC1(N2CCOCC2)CCCCC1`, the activation was inactive: 4.59%. With `N#CC1(Nc2ccccc2)CCN(Cc2ccccc2)CC1` the activation was inactive: -2.85%. With `O=C(NCC1(N2CCCCC2)CCCCC1)c1ccc(Cl)s1` the activation was inactive: -4.98%. In the case of `O=C(OC1CN2CCC1CC2)C1c2ccccc2Oc2ccccc21` (stereo not given), the activation was inactive: 1.08%. With `O=c1[nH]c2ccccc2n1C1CCN(C(c2cc3ccccc3o2)c2nnnn2C2CCCCC2)CC1` (stereo not given) the activation was inactive: -4.44%. For `CCCCn1nnnc1C(c1ccc(OC)cc1)N1CCC(n2c(=O)[nH]c3ccccc32)CC1` (stereo not given), the activation was inactive: -2.97%. With `CCOC(=O)N1CCC(Nc2ccc(OC)cc2)CC1` the activation was inactive: -3.27%. With `CC(C)c1ccc(NC2CCN(C(=O)OC(C)(C)C)CC2)cc1` the activation was inactive: -1.83%. With `CN(C)c1cccc(C(=O)NCC2(N3CCCCC3)CCCCC2)c1` the activation was inactive: -1.85%. With `COc1ccc(CN(CCCl)CCCl)cc1Cl` the activation was inactive: -2.79%. For `COC(=O)C1(Nc2ccccc2)CCN(Cc2ccccc2)CC1`, the activation was inactive: -2.17%. For `CCC(c1nnnn1C(C)(C)C)N1CCC(n2c(=O)[nH]c3ccccc32)CC1` (stereo not given), the activation was inactive: -3.01%. In the case of `O=C(NCC1(N2CCOCC2)CCCCC1)c1cc(F)c(F)cc1Cl`, the activation was inactive: -1.5%. For `COc1cc(OC)c(C(=O)NCC2(N(C)C)CCCCC2)cc1OC`, the activation was inactive: -0.51%. In the case of `CCCCn1nnnc1C(c1ccnc2ccccc12)N1CCC(n2c(=O)[nH]c3ccccc32)CC1` (stereo not given), the activation was inactive: -3.83%. For `CN1CCC(Nc2cccc(F)c2)CC1`, the activation was inactive: -2.25%. For `O=C(NCC1(N2CCCCC2)CCCCC1)c1cncc(Br)c1`, the activation was inactive: 0.61%. In the case of `COc1ccc(C(c2nnnn2C2CCCC2)N2CCC(n3c(=O)[nH]c4ccccc43)CC2)cc1` (stereo not given), the activation was inactive: -0.04%. For `CCCOc1ccc(C(=O)NCC2(N(C)C)CCCCC2)cc1OC`, the activation was inactive: -0.13%. For `Cc1ccc(C(=O)NCC2(N(C)C)CCCCC2)o1`, the activation was inactive: 1.23%. With `O=C(NCC1(N2CCCCC2)CCCCC1)c1ccc(OC(F)F)cc1` the activation was inactive: -1.13%. For `CC(C)(C)n1nnnc1C(c1ccccc1OC(F)(F)F)N1CCC(n2c(=O)[nH]c3ccccc32)CC1` (stereo not given), the activation was inactive: -6.47%. For `O=c1[nH]c2ccccc2n1C1CCN(C(c2ccccc2OC(F)(F)F)c2nnnn2C2CCCC2)CC1` (stereo not given), the activation was inactive: -4.56%. For `N#CC1(Nc2ccccc2)CCN(CCc2ccccc2)CC1`, the activation was inactive: -0.71%. With `CCN1CCC(Nc2ccc(Cl)cc2)CC1` the activation was inactive: -0.19%. In the case of `CSc1ccc(C(=O)NCC2(N3CCOCC3)CCCCC2)cc1`, the activation was inactive: -2.01%. For `O=C(NCC1(N2CCCCC2)CCCCC1)c1cccc([N+](=O)[O-])c1`, the activation was inactive: -1.43%. In the case of `O=C(NCC1(N2CCCCC2)CCCCC1)c1cccc(C(F)(F)F)c1`, the activation was inactive: 2.4%. With `COc1cc(C(=O)NCC2(N3CCCCC3)CCCCC2)ccc1OC(F)F` the activation was inactive: -1.52%. With `O=C(NCC1(N2CCOCC2)CCCCC1)c1cc(=O)[nH]c2ccccc12` the activation was inactive: 0.32%. For `CN1CCN(CCOC(=O)C(O)(c2ccccc2)c2ccccc2)CC1`, the activation was inactive: 0.09%. For `CC(C)c1ccc(C(=O)NCC2(N3CCOCC3)CCCCC2)cc1`, the activation was inactive: -0.98%. For `COc1ccc(NC2CCN(C(=O)OC(C)(C)C)CC2)cc1`, the activation was inactive: -3.01%. In the case of `CCCCn1nnnc1C(c1cccc2ccccc12)N1CCC(n2c(=O)[nH]c3ccccc32)CC1` (stereo not given), the activation was inactive: -0.86%. In the case of `N#Cc1ccc(C(=O)NCC2(N3CCCCC3)CCCCC2)cc1`, the activation was inactive: -1.96%. For `CC(C)(C)OC(=O)N1CCC(N(C(=O)c2ccccc2)c2ccc(Cl)cc2)CC1`, the activation was inactive: 5.33%. For `CN(C)C1(CNC(=O)c2cccc(C#N)c2)CCCCC1`, the activation was inactive: -2.01%. For `Cc1cc(N(CCCl)CCCl)ccc1C=O`, the activation was inactive: 0.62%. In the case of `O=c1[nH]c2ccccc2n1C1CCN(C(c2ccccc2)c2nnnn2C2CCCC2)CC1` (stereo not given), the activation was inactive: -3.76%. For `CCCN1CCC(Nc2cc(OC)cc(OC)c2)CC1`, the activation was inactive: -1.45%. For `C/C(N)=N\P(=O)(Oc1ccccc1)Oc1ccccc1`, the activation was inactive: 4.57%. With `c1ccc(CN2CCC(Nc3ccccc3)CC2)cc1` the activation was inactive: -3.72%. With `CC(C)(C)n1nnnc1C(c1cccc2ccccc12)N1CCC(n2c(=O)[nH]c3ccccc32)CC1` (stereo not given) the activation was inactive: -7.44%. With `COc1cc(C(=O)NCC2(N3CCOCC3)CCCCC2)cc(OC)c1C` the activation was inactive: -3.2%. For `CCCCn1nnnc1C(c1ccccc1)N1CCC(n2c(=O)[nH]c3ccccc32)CC1` (stereo not given), the activation was inactive: 0.38%. In the case of `O=C(NCC1(N2CCOCC2)CCCCC1)c1cc(Br)ccc1Cl`, the activation was inactive: -1.95%. In the case of `NC(=O)C1(Nc2ccccc2)CCN(Cc2ccccc2)CC1`, the activation was inactive: 3.5%. For `O=c1[nH]c2ccccc2n1C1CCN(C(c2cccs2)c2nnnn2C2CCCCC2)CC1` (stereo not given), the activation was inactive: -4.56%. In the case of `O=c1[nH]c2ccccc2n1C1CCN(C(c2ccnc3ccccc23)c2nnnn2C2CCCC2)CC1` (stereo not given), the activation was inactive: 0.12%. With `COc1ccc(C(=O)NCC2(N3CCOCC3)CCCCC2)cc1OC` the activation was inactive: 2.66%. In the case of `CCOC(=O)N1CCC(Nc2ccc(C)cc2)CC1`, the activation was inactive: -0.38%. With `COc1cccc(C(c2nnnn2C(C)(C)C)N2CCC(n3c(=O)[nH]c4ccccc43)CC2)c1OC` (stereo not given) the activation was inactive: 0.54%. In the case of `N/C(=N\O)c1c(N)no[n+]1[O-]`, the activation was inactive: 1.43%. In the case of `O=c1[nH]c2ccccc2n1C1CCN(C(c2cccs2)c2nnnn2C2CCCC2)CC1` (stereo not given), the activation was inactive: -1.57%. For `O=C(OC1CN2CCC1CC2)C1c2ccccc2C=Cc2ccccc21` (stereo not given), the activation was inactive: -2.42%. With `CCCCn1nnnc1C(c1cccc(OC)c1OC)N1CCC(n2c(=O)[nH]c3ccccc32)CC1` (stereo not given) the activation was inactive: -2.45%. With `CN1CCC(Nc2ccc(F)c(Cl)c2)CC1` the activation was inactive: -0.52%. With `CCOc1ncccc1C(=O)NCC1(N2CCOCC2)CCCCC1` the activation was inactive: -2.86%. For `O=C(O)C1(Nc2ccccc2)CCN(Cc2ccccc2)CC1`, the activation was inactive: -0.82%. With `NN(c1ccccc1)C1CCN(CCc2ccccc2)CC1` the activation was inactive: 2.35%. With `CC(C)(C)OC(=O)N1CCC(Nc2ccccc2)CC1` the activation was inactive: -4.48%. With `O=c1[nH]c2ccccc2n1C1CCN(C(c2cc3ccccc3o2)c2nnnn2C2CCCC2)CC1` (stereo not given) the activation was inactive: -6.26%. For `CCCOc1ccc(C(=O)NCC2(N(C)C)CCCCC2)cc1`, the activation was inactive: -3.48%. With `COc1cccc(C(c2nnnn2C2CCCC2)N2CCC(n3c(=O)[nH]c4ccccc43)CC2)c1OC` (stereo not given) the activation was inactive: -4.58%. For `COc1cc(OC)cc(C(=O)NCC2(N3CCOCC3)CCCCC2)c1`, the activation was inactive: 3.4%. With `COc1cccc(C(=O)N(c2cc(C)cc(C)c2)C2CCN(C(=O)OC(C)(C)C)CC2)c1` the activation was inactive: 2.41%. In the case of `CCC(CO)(C(=O)OC1CN2CCC1CC2)c1ccccc1` (stereo not given), the activation was inactive: 1.01%. In the case of `CN1CCC(Nc2ccc(Cl)cc2)CC1`, the activation was inactive: -2.57%. For `CCC(c1nnnn1C1CCCCC1)N1CCC(n2c(=O)[nH]c3ccccc32)CC1` (stereo not given), the activation was inactive: -3.08%. For `COc1cccc(C(c2nnnn2C2CCCCC2)N2CCC(n3c(=O)[nH]c4ccccc43)CC2)c1OC` (stereo not given), the activation was inactive: -4.63%. With `CC(=O)N(c1ccccc1)C1CCNCC1` the activation was inactive: -2.55%. For `COc1cc(OC)cc(C(=O)NCC2(N3CCCCC3)CCCCC2)c1`, the activation was inactive: -2.41%. For `O=c1[nH]c2ccccc2n1C1CCN(C(c2ccnc3ccccc23)c2nnnn2C2CCCCC2)CC1` (stereo not given), the activation was inactive: -3.47%. In the case of `Fc1ccccc1NC1CCN(Cc2ccccc2)CC1`, the activation was inactive: 4.1%. In the case of `Cc1ccc(C(=O)NCC2(N3CCCCC3)CCCCC2)o1`, the activation was inactive: -3.12%. For `Cc1ccc(NC2(C#N)CCN(Cc3ccccc3)CC2)cc1`, the activation was inactive: 1.1%. For `CCN1CCC(Nc2cccc(F)c2)CC1`, the activation was inactive: 3.21%. For `COc1ccc(C(c2nnnn2C2CCCCC2)N2CCC(n3c(=O)[nH]c4ccccc43)CC2)cc1` (stereo not given), the activation was inactive: 0.95%. In the case of `CC(C)(C)n1nnnc1C(c1ccnc2ccccc12)N1CCC(n2c(=O)[nH]c3ccccc32)CC1` (stereo not given), the activation was inactive: -6.27%. In the case of `Cc1ccccc1NC1(C#N)CCN(Cc2ccccc2)CC1`, the activation was inactive: -1.2%. For `CN(C)c1ccc(C(=O)NCC2(N3CCCCC3)CCCCC2)cc1`, the activation was inactive: -1.19%. With `Cn1c(=O)[nH]cc(N(CCCl)CCCl)c1=O` the activation was inactive: -3.82%. In the case of `O=C(NCC1(N2CCCCC2)CCCCC1)c1ccco1`, the activation was inactive: 3.18%.
